Yeast mating assay B: variants of the scFv Ab-14

From the AlphaSeq antibody data of Li et al. 2023 (doi:10.1038/s41467-023-39022-2), copy in the FLAb collection.

Target: peptide PDVDLGDISGINAS, taken from heptad repeat 2 (HR2) of SARS-CoV-2 spike.

Parent: Ab-14, a human scFv built as VH, a (GGGGS)3 linker, VL. Only the CDRs of the heavy chain vary.
VH: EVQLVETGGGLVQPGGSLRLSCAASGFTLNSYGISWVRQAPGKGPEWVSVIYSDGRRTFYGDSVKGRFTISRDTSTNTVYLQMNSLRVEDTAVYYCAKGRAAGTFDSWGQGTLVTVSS
VL: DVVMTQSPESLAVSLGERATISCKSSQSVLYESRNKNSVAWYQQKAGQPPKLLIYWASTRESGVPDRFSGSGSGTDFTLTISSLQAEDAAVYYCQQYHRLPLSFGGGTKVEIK

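Phage display of a naive human antibody library on the peptide gave the parent. The variants were designed computationally from a first round of random CDR variants and then made and measured. Group labels follow the data file (Ctrl: baseline library sampled from a position-specific scoring matrix, with some repeated check sequences; Rand: our label for a block that the file lists under HC and that is probably the random mutants of the ten best first-round binders; En: ensemble of fine-tuned language models; GP: Gaussian process model; GPLM: also part of the Gaussian process libraries; HC: hill climbing; Gen: genetic algorithm; Gibbs: Gibbs sampling; a sequence that several methods proposed may carry one label only). The assay is AlphaSeq: two haploid yeast populations carry antibody and antigen on their surface. The frequency of each diploid, read from paired DNA barcodes, reflects how well the two displayed proteins bind. Scores were corrected for input abundance and mapped to Kd with protein pairs of known affinity run in the same pool. Each pool was mated in six replicate cultures.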

Variants are written as CDR1, CDR2 and CDR3 of the heavy chain (limits as in the source). Parent: GFTLNSYGIS, VIYSDGRRTFYGDSVK, GRAAGTFDS.
This list holds designs with at most six substitutions.
Each Kd is an estimate from the mating assay, the geometric mean of the replicates in which the pair was seen; lower is stronger.
"not detected" marks a missing value. The strain was present, yet no cells mated with the target were sequenced in any replicate, which points to weak or no binding.
The authors averaged sequences with at least three values out of six and counted those with two or fewer as poor binders.

| CDR-H1 | CDR-H2 | CDR-H3 | group | Kd | seen in |
|---|---|---|---|---|---|
| GFTLNSYGIS | VIYSDGKRTFYKDSVK | GRTAGTFDS | GP_Gen | 1.7 nM | 5 of 6 |
| GFTLNSYGIS | VIYSDGRRTFYQDSVK | GRAQGTFPS | Ctrl | 67 nM | 2 of 6 |
| GFSLNSYGIS | VIYSDGRRTFYGDSVK | GLVAGTFDS | GPLM_Gibbs | 1.6 nM | 6 of 6 |
| GFDLNSYGIS | VIYSDGRRTFYVDDVK | GNAAGTFDS | GPLM_Gibbs | 790 pM | 6 of 6 |
| GFDLNSYGIS | VIYSDGKRTFYGDSVK | GEAAGTFDS | GP_Gen | 19 nM | 6 of 6 |
| GFNLNSYGIS | VIYSDGRRTFYGDSVK | GMEAGTFDS | GP_Gen | 1.7 nM | 6 of 6 |
| GFTLESYGIS | VIYADGRRTFYGDSVK | GRAAGTFDN | GP_Gibbs | 3.0 nM | 6 of 6 |
| GFTLNSYGRS | VIYSDGRRTFYGDSVK | GRAAGTFDS | Ctrl | not detected | 0 of 6 |
| GFTLNSYGIS | VIYSDGKRTFYIDSVK | GEAAGTFDS | GPLM_HC | 23 nM | 3 of 6 |
| GFTLNSYGIS | VIYSDGERTFYGDSVK | GRAKGTFDS | Ctrl | not detected | 0 of 6 |
| GFNLNSYGIS | VIYSDGRRTFYIDRVK | GNAAGTFDS | GP_Gen | 540 nM | 2 of 6 |
| SFDLNSYGIS | VIYSDGRRTFYGDSVK | GEAAGTFDS | GPLM_Gen | 15 nM | 6 of 6 |
| GFSLNEYGIS | VIYSDGRRTFYHDSVK | GRNAGTFDS | GPLM_Gen | 850 pM | 5 of 6 |
| GFTLNSYGIS | VISSDGRRTFYDDSVK | GQLAGTFDS | Rand | 670 nM | 1 of 6 |
| GFTLNEYGIS | VIYSDGRRTFYGDSVK | GCIAGTFDL | GP_HC | 74 nM | 1 of 6 |
| GFTLGSYGIS | VIYSDGYRTAYGDSVK | GRESGTFDS | Ctrl | not detected | 0 of 6 |
| GFTLNSYGIS | VIYSDGRRTFYCDSVK | GQLAGTFDT | GP_HC | 87 nM | 1 of 6 |
| GFDLNSYGIS | VIYSDGRRTFYMDSVK | GQLAGTFDS | GP_HC | 2.4 nM | 6 of 6 |
| GETLNEYGIS | VIYSDGRRTFYGDSVK | GRAAVTFDV | GP_HC | not detected | 0 of 6 |
| GFTLSSYGIS | VIYSDGRRTFYSDSVK | DRIKGTFDS | Ctrl | 55 nM | 4 of 6 |
| GFDLNSYGIS | VIYSDGKRTFYDDNVK | GRTAGTFDS | GP_Gibbs | 1.4 nM | 6 of 6 |
| GFSLNSYGIS | VIYSDGRRTFYQDSVK | GRTAGTFDV | GP_Gibbs | 7.5 nM | 6 of 6 |
| GFTLNSYGIS | VIYADGRRTFYADSVK | GDAYGTFDS | Ctrl | not detected | 0 of 6 |
| GFTLESYGIS | VIYSDGRRTFYGDSNK | GRNAGTFDS | Ctrl | not detected | 0 of 6 |
| GFTLNSYGIS | VIYSDGLRTFYHDSVK | GRQAGTFDT | GP_Gibbs | 5.6 nM | 4 of 6 |
| GFDLNEYGIS | VIYADGKRTFYADSVK | GNAAGTFDS | En_HC | 630 pM | 6 of 6 |
| GFSLNEYGIS | VIYSDGRRTFYTDSVK | GREAGTFDS | GPLM_Gen | 1.6 nM | 6 of 6 |
| GFSLNSYGIS | VIYSDGRRTFYVDSVK | GRQAGTFDT | GP_Gen | 26 nM | 4 of 6 |
| GFSLNEYGIS | VIYSDGRRTFYCDSVK | GRAAVTFDK | GP_HC | not detected | 0 of 6 |
| GFTLNQYGIS | VIYSDGWRTFYIDSVK | GRAAGTFTS | GP_HC | not detected | 0 of 6 |
| GFDLNSYGIS | VIYSDGRRTFYADSVK | GRTAGTFDA | GPLM_Gibbs | 930 pM | 6 of 6 |
| GFTLNSYGIS | VIYADGRRTFYGDSVK | GRHAGTFDS | Ctrl | 6.6 nM | 6 of 6 |
| GFTVNSYGIS | VIYSDGRRTFYGDKVV | GQAAGTFDS | Ctrl | not detected | 0 of 6 |
| GFTLNDYGIR | VIYSDGRNTQYIDSVK | GRAARTFDS | Rand | not detected | 0 of 6 |
| GFELNSYGIS | VIYSDGRRTFYQDSVK | GEAAGTFDS | GPLM_Gen | 14 nM | 6 of 6 |
| GFTLNSYGIS | VIYRDGRRTFYGDSVK | GTAAGTFDS | Ctrl | not detected | 0 of 6 |
| GFTLNEYGIS | VIYSDGRRTFYGDDVK | GDAAFTFDV | Ctrl | 10 nM | 6 of 6 |
| GFNLNSYGIS | VIYSDGRRTFYLDSVK | GRTAGTFDS | GP_Gen | 13 nM | 4 of 6 |
| GFSLNSYGIS | VIYSDGRRTFYIDSVK | GQVAGTFDS | GPLM_Gen | 5.2 nM | 3 of 6 |
| GFNLLSYGYS | VIYSDGRRTFYGDSVK | NRAAGTFLS | Ctrl | not detected | 0 of 6 |
| GFTLNDYGIS | VIYADGRRTFYGDSVK | GILTGTFDS | Ctrl | not detected | 0 of 6 |
| GFTLMSYGIS | VIYSDGRRTFYNDSVK | GRAAGQFDS | Ctrl | not detected | 0 of 6 |
| GFTLNSYGIS | VIYSDGIRTFYSDSVK | GRAAGTFDQ | Ctrl | 11 nM | 6 of 6 |
| GFTLNSYSIS | VIYSDGRRTFYGDSVR | GRDAGRFVD | Ctrl | not detected | 0 of 6 |
| GFTLNSYGIS | VIYSDGRRTFYGGSVK | GEAAGTFDS | Ctrl | not detected | 0 of 6 |
| GFSLNSYGIS | VIYSDGRRTYYGDSVK | GKAAGTFDS | GPLM_Gen | 4.6 nM | 6 of 6 |
| GFNLNSYGIS | VIYSDGRRTFYGDSVK | GKVAGTFDS | GP_Gen | 21 nM | 6 of 6 |
| GFTLASYGIS | VIYSDGRRTFYTDSVK | GGAYGTFDS | Ctrl | 68 nM | 6 of 6 |
| GFVLNQYGIS | VIYSDGRRTFYADSVK | GRAAGTFDS | GPLM_HC | 1.8 nM | 4 of 6 |
| GFALNSYGIS | VIYSDGRRTFYHDSVK | GQLAGTFDS | GP_HC | 2.5 nM | 6 of 6 |
| GFTLNSYGIS | VIYSDGRRTFYRDSVK | GQTAGTFDL | GP_Gibbs | 28 nM | 3 of 6 |
| GFDLNSYGIS | VIYSDGRRTFYIDAVK | GRQAGTFDS | GP_Gibbs | 6.2 nM | 6 of 6 |
| GFSLNSYGIS | VIYSDGMRTFYKDSVK | GRTAGTFDS | GP_Gen | not detected | 0 of 6 |

A sequence measured in both rounds can read differently, since the two assays cover different ranges.
Empty control strains, which show no peptide, gave a signal in 1% of pairings with all heavy chain designs; the median was 120 nM and 95% of these signals were weaker than 7.0 nM. No background was subtracted.